The source of these data is US20260345623A1, “NOVEL TRICYCLIC HETEROCYCLIC CARBALDEHYDE COMPOUND AND PHARMACEUTICAL COMPOSITION, CONTAINING SAME, FOR IRE1alpha INHIBITION” (HANMI PHARM. CO., LTD., priority 2022, published 2026).

The chains behind the UniProt entries cited, without tags or fusion partners. Residues count along the entry.
UniProt O75460, 19-977: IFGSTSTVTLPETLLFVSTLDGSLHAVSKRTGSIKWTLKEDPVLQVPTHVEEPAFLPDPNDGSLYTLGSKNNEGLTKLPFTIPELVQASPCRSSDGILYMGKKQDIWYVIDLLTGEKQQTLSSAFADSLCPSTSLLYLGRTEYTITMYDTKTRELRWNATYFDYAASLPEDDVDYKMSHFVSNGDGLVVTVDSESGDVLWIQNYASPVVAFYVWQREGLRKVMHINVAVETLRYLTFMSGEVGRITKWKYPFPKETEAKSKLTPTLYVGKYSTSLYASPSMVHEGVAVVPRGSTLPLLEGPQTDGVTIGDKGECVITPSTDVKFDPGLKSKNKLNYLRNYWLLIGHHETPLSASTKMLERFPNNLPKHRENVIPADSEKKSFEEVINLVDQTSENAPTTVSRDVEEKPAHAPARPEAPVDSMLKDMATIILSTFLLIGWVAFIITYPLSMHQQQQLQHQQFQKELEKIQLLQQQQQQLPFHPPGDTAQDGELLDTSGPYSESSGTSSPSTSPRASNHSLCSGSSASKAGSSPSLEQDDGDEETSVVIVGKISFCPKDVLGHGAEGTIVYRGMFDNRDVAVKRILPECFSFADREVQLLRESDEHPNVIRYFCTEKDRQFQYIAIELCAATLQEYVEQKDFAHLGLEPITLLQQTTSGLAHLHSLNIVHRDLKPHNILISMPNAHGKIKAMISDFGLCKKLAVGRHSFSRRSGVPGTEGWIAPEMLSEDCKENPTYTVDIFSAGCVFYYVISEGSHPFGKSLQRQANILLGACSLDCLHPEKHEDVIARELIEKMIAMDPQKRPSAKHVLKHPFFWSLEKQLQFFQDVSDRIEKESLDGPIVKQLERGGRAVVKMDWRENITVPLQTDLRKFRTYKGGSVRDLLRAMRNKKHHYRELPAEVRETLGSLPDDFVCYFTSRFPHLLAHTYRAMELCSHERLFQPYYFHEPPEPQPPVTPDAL

Structures are written as SMILES.

In this assay the target is T1, spliced XBP1 mRNA (target of IRE endonuclease) in MCF-7 cancer cells (Homo sapiens, UniProt O75460).
T1 construct: tunicamycin ER stress; RT-PCR of spliced XBP1 mRNA (RNase domain activity)
Put plainly: Spliced XBP1 mRNA Measurement Test (RT-PCR, tunicamycin-induced ER stress, MCF-7 cells). The format is cell-based. The following applies: 1 hour pre-treatment with compound, 2 μg/mL tunicamycin 6 or 24 hours, spliced XBP1 corrected by total XBP1. On the procedure:
With respect to these synthetic compounds, reverse transcription polymerase chain reaction (RT-PCR) experiments were conducted on MCF-7 cancer cells to confirm the effect thereof on the mRNA and protein amounts of spliced XBP1, which is the target of IRE endonuclease. A reverse transcription polymerase chain reaction is a test method in which RNA is extracted from cells, reverse transcriptase is used to make cDNA, and relative mRNA expression level is measured through a polymerase chain reaction.
Briefly, MCF-7 cells were seeded in a 12-well plate and cultured in an incubator including 5% CO2 for one day. On the next day, compounds, which were 10-fold serially diluted from 10,000 nM, were pre-treated for 1 hour, and then, treated with 2 μg/mL tunicamycin for 6 or 24 hours to induce endoplasmic reticulum stress, followed by cell lysis to obtain RNA. […] The amount of mRNA of each of spliced XBP1 and total XBP1 was measured by a polymerase chain reaction through real time PCR by mixing each cDNA sample with a PCR reaction mixture including a primer pair capable of binding specifically to each target and SYBR green dye. The expression level of spliced XBP1 was corrected by the total expression level of XBP1, and the relative expression levels of spliced XBP1 between samples were compared and analyzed. […]

In general, IC50 refers to the concentration at which inhibition is half-maximal. Consider `COc1cc2c(C)c(CC(=O)N3CCOCC3)c(=O)oc2c(C=O)c1O` [MKC8866, reference compound], for which the IC50 was < 100 nM.
